Our source for the -Log K0.5 values is ChEMBL document CHEMBL1132350, “Quantitative structure-activity relationship modeling of dopamine D(1) antagonists using comparative molecular field analysis, genetic algorithms-partial least-squares, and K nearest neighbor methods” (J Med Chem, 1999).

By UniProt entry, the sequences of proteins in these tests, tags left out.
UniProt P18901, whole entry: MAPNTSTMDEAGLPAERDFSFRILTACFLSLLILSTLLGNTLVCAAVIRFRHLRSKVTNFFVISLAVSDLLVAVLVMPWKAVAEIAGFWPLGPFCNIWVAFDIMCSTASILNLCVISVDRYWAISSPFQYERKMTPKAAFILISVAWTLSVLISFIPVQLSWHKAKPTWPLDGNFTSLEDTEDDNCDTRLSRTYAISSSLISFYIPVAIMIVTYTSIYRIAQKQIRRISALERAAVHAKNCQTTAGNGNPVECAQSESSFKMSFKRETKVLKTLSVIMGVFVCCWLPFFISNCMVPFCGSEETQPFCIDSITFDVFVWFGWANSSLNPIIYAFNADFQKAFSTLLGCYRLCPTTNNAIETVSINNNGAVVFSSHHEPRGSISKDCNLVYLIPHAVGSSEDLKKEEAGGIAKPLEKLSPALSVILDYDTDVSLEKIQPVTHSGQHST

This assay deals with D(1A) dopamine receptor (Rattus norvegicus) (UniProt P18901). The following applies: Striatum.

The compound `CN1Cc2cc(Cl)c(O)cc2C(c2ccccc2)C1` (configuration not stated) registered a -Log K0.5 of 7.06.

The compound `Oc1cc2c(cc1Cl)CNCC2c1ccccc1` (configuration not stated) showed a -Log K0.5 of 6.55.
